By UniProt entry, the sequences of proteins in these tests, tags left out. Where a name states a change or a piece, a line headed by the entry shows the natural chain unless it says otherwise.
UniProt P25105: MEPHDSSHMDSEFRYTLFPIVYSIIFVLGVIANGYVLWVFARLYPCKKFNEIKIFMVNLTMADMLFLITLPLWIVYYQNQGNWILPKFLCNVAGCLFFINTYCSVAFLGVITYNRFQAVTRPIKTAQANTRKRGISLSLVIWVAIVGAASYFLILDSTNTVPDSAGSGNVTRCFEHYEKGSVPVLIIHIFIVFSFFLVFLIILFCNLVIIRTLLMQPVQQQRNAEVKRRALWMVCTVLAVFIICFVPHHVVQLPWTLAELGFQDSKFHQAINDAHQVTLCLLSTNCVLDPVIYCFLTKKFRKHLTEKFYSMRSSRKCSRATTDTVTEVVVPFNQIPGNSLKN

According to ChEMBL document CHEMBL2390918, “Cinnamides as selective small-molecule inhibitors of a cellular model of breast cancer stem cells” (Bioorg Med Chem Lett, 2013):

Biological target: Platelet-activating factor receptor (Homo sapiens, UniProt P25105)

CCCCCCCCCCCCCCCCOC[C@H](COP(=O)([O-])OCC[N+](C)(C)C)OC(C)=O
IC50: 0.28 nM
